Compound activity: PubChem BioAssay, National Center for Advancing Translational Sciences (NCATS)
CBFb-RUNX1 inh = CBF-beta/RUNX1 interaction disruption; AlphaScreen CBFb-His/RUNX1-biotin binding, biochemical; Potency, µM (highest dose often 59.8 µM), for the others: at the top dose activity, negative = inhibition, usual class: inhibitors; 230,000 tested, under 10 active; AID 1477; active means well fitted curve in the direction sought with a large enough effect; inconclusive means small, poorly fitted or top-dose-only effect, or effect the other way, or another doubt; inactive means no such curve, though single readings can be large or run the other way; further: % of control where 0% means no effect
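Bead-based AlphaScreen assay; binding partners His-tagged CBF-beta and biotinylated RUNX1 at 30 nM each. Compound exposure 15 min after a 20-min protein preincubation; bead step 90 min; all steps at room temperature.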
ClpP mod = qHTS Assay for Activators of ClpP | Potency, µM (highest dose often 57.5 µM), for inactives: at the highest dose activity change, negative = active | 1.9% of 340,000 active | ATP-dependent Clp protease proteolytic subunit (Bacillus subtilis (strain 168)), P80244 | AID 651965, 2013 | purified B. subtilis ClpP, FRET peptide cleavage, 20 min; active means well fitted falling curve with a large enough effect; inconclusive means small, poorly fitted or top-dose-only effect; inactive means no such curve, though single readings can be large or run the other way; further: potency means the concentration at half of the fitted maximal effect; the source files actives as falling curves though it sought activators and does not explain the sign; nearly all actives have a fitted effect of over 65% in size
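FRET quenching reversal measured ClpP activation: 10 microg/mL B. subtilis ClpP at pH 8 with the FRET-FV decapeptide, read at 430 nm after 320 nm excitation. The 20-min minus 0-min signal was scaled between DMSO/no-enzyme wells and ADEP (5.8 microM final).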
Rango dissoc inh = prevents RanGTP from dissociating the Rango-importin beta complex; Potency, µM (top dose mostly 46.1 µM), for inactives: at the highest dose activity change, negative = inhibition; 0.071% of 340,000 active; O95149+P62826; Biochemical FRET Rango-importin beta, RanGTP-induced dissociation; further: potency means the concentration at half of the fitted maximal effect; % of control where 0% means no effect; nearly all actives have a fitted effect of over 45% in size
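Quantitative HTS using a FRET biosensor: 0.1 uM Rango, 0.25 uM importin beta, 0.6 uM Ran, 2 mM GTP, 0.2 uM RCC1 final, PBS with DTT, Tween-20 and BSA. Post-read taken 45 min after Ran addition.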
MBNL1-CUG inh = MBNL1-poly(CUG) RNA binding inhibition | Q9NR56 | TR-FRET MBNL1-His/biotin-(CUG)12 binding, 665/545 ratio | Potency, µM (highest dose often 57.5 µM), for inactives: at the top dose activity change, negative = inhibition, actives largely listed as inhibitors | 0.036% of 280,000 active | AID 2675; active means well fitted inhibition curve with a large enough effect in the signal ratio, with a control signal flat, not every such curve was filed as active; inconclusive means small, poorly fitted or top-dose-only effect, or effect the other way, or a change in a side signal; inactive means no such curve, though single readings can be large or run the other way; the % refers to the signal ratio; further: potency means the concentration at half of the fitted maximal effect; on the % scale 0 is the no-effect control and ±100 the full control effect
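MBNL1-His + Biotin-(CUG)12, cpd titration 92 nM–58 uM; Tb anti-His Ab 0.055 ng/ul, SA-XL665 5 nM (final); 60 min RT; ratiometric 665/545 nm, Ex 340 nm; normalized to buffer and full-complex controls.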
Rango-impB inh = prevents formation of the Rango-importin beta complex; Q14974; Rango CFP/YFP FRET sensor + importin beta, 45 min; Potency, µM (titrated, usually from 92.2 µM), without a hit: top-dose inhibition of complex formation; 0.031% of 340,000 active; AID 540263;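 further: potency means the concentration at half of the fitted maximal effect; 0% = DMSO wells and 100% = buffer wells lacking importin beta; nearly all actives have a fitted effect of over 15% in size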
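Inhibition scored from the CFP 486 nm/YFP 530 nm FRET ratio 45 min after adding 0.125 microM importin beta to 50 nM Rango biosensor preincubated 5 min with compound (room temperature, PBS with DTT, Tween-20, BSA). No-importin wells as positive control.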
An asterisk follows results filed as active. The full list was thinned out, with hits kept by preference. Unless noted, the call rests on the fitted dose curve.

Chains of the proteins cited; added tags and fusions are not shown.
ATP-dependent Clp protease proteolytic subunit (Bacillus subtilis (strain 168)), P80244, UniProt P80244, whole entry, looked up: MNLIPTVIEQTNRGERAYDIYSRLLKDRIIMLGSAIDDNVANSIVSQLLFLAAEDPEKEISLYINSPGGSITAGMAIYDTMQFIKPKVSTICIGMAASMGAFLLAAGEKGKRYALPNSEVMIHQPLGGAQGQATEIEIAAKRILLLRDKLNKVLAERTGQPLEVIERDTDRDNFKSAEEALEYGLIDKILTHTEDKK

`O=C1c2ccccc2C(=O)N1CSc1nnc(Nc2ccccc2F)s1` gave CBFb-RUNX1 inh 0%, ClpP mod 28µM*, Rango dissoc inh -1%, MBNL1-CUG inh 4% and Rango-impB inh -3%.
For CSc1ccc(/C=C2\C=Cc3ccc([N+](=O)[O-])cc32)cc1 the results were ClpP mod -2%.
CN(C)c1ccc(C=Nc2cncc3ccccc23)cc1 was read as ClpP mod 20%.
For COc1ccc(-n2c(C(C)n3nc(C)c([N+](=O)[O-])c3C)n[nH]c2=S)cc1 (stereo unspecified) the results were CBFb-RUNX1 inh -4%, ClpP mod 1%, Rango dissoc inh -4%, MBNL1-CUG inh 4% and Rango-impB inh 1%.
`COc1ccc(-n2c(C)c([N+](=O)[O-])c3ccc(O)c(CN(C)C)c32)cc1` gave CBFb-RUNX1 inh -2%, ClpP mod 22µM*, Rango dissoc inh 5%, MBNL1-CUG inh inconclusive and Rango-impB inh 0%.
For COc1cccc(-c2c(-c3ccccc3OC)ncn2Cc2cccc(-c3ccccc3)c2)c1 the results were ClpP mod 28µM*.
Screening COc1cccc(Cn2cnc(-c3ccccc3OC)c2-c2ccco2)c1 returned ClpP mod -18%.
Screening NC(=O)c1ccc2nc(-c3ccccc3)c(-c3ccccc3)nc2c1 returned ClpP mod 4%, Rango dissoc inh -4%, MBNL1-CUG inh 11% and Rango-impB inh 0%.
CCOC(=O)C1CCCN(C(=O)c2ccc3nc(-c4ccccc4)c(-c4ccccc4)nc3c2)C1 (stereo unspecified) was read as ClpP mod 4%, Rango dissoc inh -12%, MBNL1-CUG inh 24% and Rango-impB inh 0%.
Screening CCN1CCN(C(=O)c2ccc3nc(-c4ccccc4)c(-c4ccccc4)nc3c2)CC1 returned ClpP mod 16µM*, Rango dissoc inh 8%, MBNL1-CUG inh 11% and Rango-impB inh 0%.
Screening O=C(O)c1ccc2nc(-c3ccccc3)c(-c3ccccc3)nc2c1 returned CBFb-RUNX1 inh 21%, ClpP mod 22µM*, Rango dissoc inh 2% and Rango-impB inh inconclusive.
Screening CCN(CC)CCCNC(=O)c1cn(CC)c2ccc(S(=O)(=O)N3CCC(C)CC3)cc2c1=O returned ClpP mod -1%.
`Cc1cc(=O)[nH]c(SCC(=O)N2CCCC2)n1` gave ClpP mod 22µM*, Rango dissoc inh -13% and Rango-impB inh 1%.
`Cc1ccc(-n2nc3c(N4CCCC(C(=O)NCCc5ccccc5)C4)nnc(C)c3c2C)cc1` (stereo unspecified) gave ClpP mod 4%.
Screening CCOC(=O)N1CCN(C(=O)c2ccc3nc4ccc(Cl)cc4c(=O)n3c2)CC1 returned CBFb-RUNX1 inh 16%, ClpP mod 14µM*, Rango dissoc inh 0%, MBNL1-CUG inh inconclusive and Rango-impB inh 0%.
COC(=O)Nc1nnc(/C=C/c2ccc(OC)cc2)s1 was read as CBFb-RUNX1 inh 8%, ClpP mod 22µM*, Rango dissoc inh inconclusive, MBNL1-CUG inh 20% and Rango-impB inh -4%.
Screening Cc1ccc2nc(SCC(=O)N3CCCC3)nc(=O)n2c1 returned ClpP mod 25µM*, Rango dissoc inh 1% and Rango-impB inh 1%.
CCc1ccc(NC(=O)CSc2nc(=O)n3cc(C)ccc3n2)cc1 was read as ClpP mod 25µM*, Rango dissoc inh 0% and Rango-impB inh 2%.
Screening O=C(CSc1nc2c(c(=O)[nH]1)CN(Cc1ccc(F)cc1)CC2)Nc1cccc(C(F)(F)F)c1 returned ClpP mod -12%.
For Cc1cccc2nc(-c3ccccc3)nc(N3CCC(O)(c4ccc(Cl)cc4)CC3)c12 the results were CBFb-RUNX1 inh 24%, ClpP mod 14µM*, Rango dissoc inh 15%, MBNL1-CUG inh 4% and Rango-impB inh 2%.
For Cc1cccc(Cc2nnc(CCC(=O)N(C)CCc3ccccc3)o2)c1 the results were Rango dissoc inh 10%, MBNL1-CUG inh 4% and Rango-impB inh 21µM*.

3 compounds picked at random from the list so far:
For Cc1cccc(Cc2nnc(CCC(=O)N(C)CCc3ccccc3)o2)c1 the results were Rango dissoc inh 10%, MBNL1-CUG inh 4% and Rango-impB inh 21µM*.
Screening Cc1ccc2nc(SCC(=O)N3CCCC3)nc(=O)n2c1 returned ClpP mod 25µM*, Rango dissoc inh 1% and Rango-impB inh 1%.
CCc1ccc(NC(=O)CSc2nc(=O)n3cc(C)ccc3n2)cc1 was read as ClpP mod 25µM*, Rango dissoc inh 0% and Rango-impB inh 2%.
